Experimental findings from patent publication US20130012527A1, “PREQ1 RIBOSWITCHES AND METHODS AND COMPOSITIONS FOR USE OF AND WITH PREQ1 RIBOSWITCHES” (YALE UNIVERSITY, priority 2007, published 2013) are described below.

The test deals with M1 RNA (80 queC, cytidine 34 replaced with uridine). In words: In-line probing analysis of 80 queC mutant M1. Conditions: M1 (C34U). In kind it is binding, B. subtilis.

Take `Nc1nc2nc[nH]c2c(=O)[nH]1` [guanine]: the structure modulation entry (200 μM) was “No structure modulation is observed”. Moreover, where the note is “in words”, the “binding to M1 RNA” value is “no binding”.
